By UniProt entry, the sequences of proteins in these tests, tags left out.
UniProt P0DMS8, whole entry: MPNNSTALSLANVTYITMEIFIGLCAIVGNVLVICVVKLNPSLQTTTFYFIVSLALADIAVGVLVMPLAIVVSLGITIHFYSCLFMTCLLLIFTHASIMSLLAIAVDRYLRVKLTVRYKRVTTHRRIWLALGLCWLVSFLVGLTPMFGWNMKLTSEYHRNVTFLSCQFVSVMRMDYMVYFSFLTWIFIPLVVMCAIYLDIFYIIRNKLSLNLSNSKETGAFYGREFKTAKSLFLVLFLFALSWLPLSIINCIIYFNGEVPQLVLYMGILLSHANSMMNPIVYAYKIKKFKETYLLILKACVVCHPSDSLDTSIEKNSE

According to article PMC2713098 (Nuclear medicine and biology, 2009):

Target: human A3AR (Homo sapiens, UniProt P0DMS8)
Conditions: Figures 1A and 1B

## CCNC(=O)[C@H]1O[C@@H](n2cnc3c(N)ncnc32)[C@H](O)[C@@H]1O [NECA, adenosine-5′-N-ethyluronamide]
  potency at human versus rat A3AR: more potent at the human A3AR
